Assay results as given in PubChem BioAssay (NCI).
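Test compounds were applied to cells in 96-well plates for 48 hours at 5 doses. GI50 marks 50% less growth. TGI is the concentration that stops growth completely.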

Legend:
Test in all cases: NCI anticancer screen, dose series, 48 h
[1] = tested on: SK-MEL-28 melanoma
[2] = tested on: NCI/ADR-RES ovarian
[3] = tested on: HCC-2998 colon
[4] = tested on: SK-OV-3 ovarian
[5] = tested on: MOLT-4 leukemia
[6] = tested on: COLO 205 colon
[7] = tested on: K-562 leukemia
[8] = tested on: A549 NSCLC
[9] = tested on: MDA-N
[10] = tested on: SF-295 CNS
[11] = tested on: CAKI-1 renal
[12] = tested on: SF-268 CNS
[13] = tested on: A498 renal
[14] = tested on: CCRF-CEM leukemia
[15] = tested on: NCI-H460 lung
[16] = tested on: M14 melanoma
[17] = tested on: MALME-3M melanoma
[18] = tested on: T-47D breast
[19] = tested on: RXF 393 renal
[20] = tested on: IGROV1 ovarian
[21] = tested on: DU-145 prostate
[22] = tested on: OVCAR-8 ovarian
[23] = tested on: MDA-MB-435
[24] = tested on: SK-MEL-5 melanoma
[25] = tested on: OVCAR-5 ovarian
[26] = tested on: PC-3 prostate
[27] = tested on: UACC-62 melanoma
[28] = tested on: UO-31 renal
[29] = tested on: HL-60(TB) leukemia
[30] = tested on: HT29 colon
[31] = tested on: U251 CNS
[32] = tested on: EKVX NSCLC
[33] = tested on: SNB-19 CNS
[34] = tested on: MCF7 breast
[35] = tested on: SN12C renal
[36] = tested on: LOX IMVI melanoma
[37] = tested on: TK-10 renal
[38] = tested on: UACC-257 melanoma
[39] = tested on: KM12 colon
[40] = tested on: OVCAR-4 ovarian
[41] = tested on: OVCAR-3 ovarian
[42] = tested on: HS 578T breast
[43] = tested on: SF-539 CNS
[44] = tested on: NCI-H322M lung
[45] = tested on: SK-MEL-2 melanoma
[46] = tested on: HOP-62 NSCLC
[47] = tested on: BT-549 breast
[48] = tested on: NCI-H522 lung
[49] = tested on: MDA-MB-231 breast
[50] = tested on: NCI-H226 lung
[51] = tested on: HCT-116 colon
[52] = tested on: ACHN renal
[53] = tested on: SW-620 colon
[54] = tested on: HCT-15 colon
[55] = tested on: NCI-H23 lung
[56] = tested on: RPMI-8226 leukemia
[57] = tested on: 786-0 renal
[58] = tested on: SNB-75 CNS

SMILES: O=[N+]([O-])c1ccc(C[As](=O)(O)O)cc1
- GI50 [1]: > 100 µM
- TGI [1]: > 100 µM
- GI50 [2]: > 100 µM
- TGI [2]: > 100 µM
- GI50 [3]: > 100 µM
- TGI [3]: > 100 µM
- GI50 [4]: > 100 µM
- TGI [4]: > 100 µM
- GI50 [5]: > 100 µM
- TGI [5]: > 100 µM
- GI50 [6]: > 100 µM
- TGI [6]: > 100 µM
- GI50 [7]: > 100 µM
- TGI [7]: > 100 µM
- GI50 [8]: > 100 µM
- TGI [8]: > 100 µM
- GI50 [9]: > 100 µM
- TGI [9]: > 100 µM
- GI50 [10]: > 100 µM
- TGI [10]: > 100 µM
- GI50 [11]: > 100 µM
- TGI [11]: > 100 µM
- GI50 [12]: > 100 µM
- TGI [12]: > 100 µM
- GI50 [13]: > 100 µM
- TGI [13]: > 100 µM
- GI50 [14]: 29.3 µM
- TGI [14]: > 100 µM
- GI50 [15]: > 100 µM
- TGI [15]: > 100 µM
- GI50 [16]: > 100 µM
- TGI [16]: > 100 µM
- GI50 [17]: > 100 µM
- TGI [17]: > 100 µM
- GI50 [18]: > 100 µM
- TGI [18]: > 100 µM
- GI50 [19]: > 100 µM
- TGI [19]: > 100 µM
- GI50 [20]: > 100 µM
- TGI [20]: > 100 µM
- GI50 [21]: > 100 µM
- TGI [21]: > 100 µM
- GI50 [22]: > 100 µM
- TGI [22]: > 100 µM
- GI50 [23]: > 100 µM
- TGI [23]: > 100 µM
- GI50 [24]: > 100 µM
- TGI [24]: > 100 µM
- GI50 [25]: > 100 µM
- TGI [25]: > 100 µM
- GI50 [26]: > 100 µM
- TGI [26]: > 100 µM
- GI50 [27]: > 100 µM
- TGI [27]: > 100 µM
- GI50 [28]: > 100 µM
- TGI [28]: > 100 µM
- GI50 [29]: > 100 µM
- TGI [29]: > 100 µM
- GI50 [30]: > 100 µM
- TGI [30]: > 100 µM
- GI50 [31]: 66.2 µM
- TGI [31]: > 100 µM
- GI50 [32]: > 100 µM
- TGI [32]: > 100 µM
- GI50 [33]: > 100 µM
- TGI [33]: > 100 µM
- GI50 [34]: > 100 µM
- TGI [34]: > 100 µM
- GI50 [35]: > 100 µM
- TGI [35]: > 100 µM
- GI50 [36]: > 100 µM
- TGI [36]: > 100 µM
- GI50 [37]: > 100 µM
- TGI [37]: > 100 µM
- GI50 [38]: > 100 µM
- TGI [38]: > 100 µM
- GI50 [39]: > 100 µM
- TGI [39]: > 100 µM
- GI50 [40]: > 100 µM
- TGI [40]: > 100 µM
- GI50 [41]: > 100 µM
- TGI [41]: > 100 µM
- GI50 [42]: > 100 µM
- TGI [42]: > 100 µM
- GI50 [43]: 51.4 µM
- TGI [43]: > 100 µM
- GI50 [44]: > 100 µM
- TGI [44]: > 100 µM
- GI50 [45]: > 100 µM
- TGI [45]: > 100 µM
- GI50 [46]: > 100 µM
- TGI [46]: > 100 µM
- GI50 [47]: > 100 µM
- TGI [47]: > 100 µM
- GI50 [48]: 86.7 µM
- TGI [48]: > 100 µM
- GI50 [49]: > 100 µM
- TGI [49]: > 100 µM
- GI50 [50]: > 100 µM
- TGI [50]: > 100 µM
- GI50 [51]: > 100 µM
- TGI [51]: > 100 µM
- GI50 [52]: > 100 µM
- TGI [52]: > 100 µM
- GI50 [53]: > 100 µM
- TGI [53]: > 100 µM
- GI50 [54]: > 100 µM
- TGI [54]: > 100 µM
- GI50 [55]: > 100 µM
- TGI [55]: > 100 µM
- GI50 [56]: > 100 µM
- TGI [56]: > 100 µM
- GI50 [57]: > 100 µM
- TGI [57]: > 100 µM
- GI50 [58]: > 100 µM
- TGI [58]: > 100 µM
